Test: in vivo
Settings: male, ICR, mouse, po, 5 mg/kg

AUC(0-inf) (brain): 20000 ng·h/mL | AUC(0-inf) (in vivo): 25200 ng·h/mL | AUC(0-inf) (plasma): 14500 ng·h/mL
Structure (SMILES): Cc1c(F)cncc1-c1ccc2nc(NC(=O)[C@@H]3C[C@@H]3F)sc2c1 [Example 8, (1S,2S)-2-fluoro-N-(6-(5-fluoro-4-methylpyridin-3-yl)benzo[d]thiazol-2-yl)cyclopropane-1-carboxamide]
